Laboratory results taken from article PMC9737972, “Dual LSD1 and HDAC6 Inhibition Induces Doxorubicin Sensitivity in Acute Myeloid Leukemia Cells” (Cancers, 2022).

Key:
THP-1 cells [1] = experiment: Reactive oxygen species activation (Muse Oxidative Stress Kit); type: cell-based; details: for ROS in combination with doxorubicin vs doxorubicin alone: compound 5 μM (ricolinostat 1.25 μM) 72 h, then + doxorubicin 62.5 nM 24 h
THP-1 cells [2] = experiment: Caspase 3/7 and 7-AAD staining (flow cytometry); details: compound 5 μM 72 h, then co-treatment with doxorubicin 62.5 nM 48 h
THP-1 cells [3] = experiment: γH2AX activation (double strand breaks, flow cytometry); type: cell-based; details: doxorubicin 62.5 nM; for DSB levels, compound on its own or as a pretreatment to doxorubicin: compound 5 μM (ricolinostat 1.25 μM) 72 h
Experimental: The Muse ɣH2A.X Activation Dual Detection Kit (Merck Millipore, Burlington, MA, USA, MCH200101) protocols were followed for double strand break analysis. Treated cells were centrifuged at 300× g for 5 min, and the pellet was resuspended with 1 × Assay Buffer (CS202134) and fixed on ice for 5 min with Fixation Buffer (CS202122) in 1:1 ratio. Fixed cells were centrifuged for 600 g for 5 min and mixed with Permeabilization Buffer (1:2 ratio CS203284) and incubated on ice for 5 min. Then, cells were centrifuged at 600 g and resuspended with 20 × Anti-H2A.X PECy5 (CS208202) and 20 × Anti-phosphate (Ser139) Alexa Fluor 555 (CS208203) antibody mix and incubated for 30 min at room temperature. Stained cells were resuspended with 200 μL of 1 × Assay Buffer and γH2AX activation was analyzed with Muse Cell Analyzer (Merck Millipore).
Figure S25. Flow cytometric analysis of double strand breaks after combination treatments. THP-1
for 6 h. Cells were analysed with Muse Cell Analyzer for H2AX activation. Images represent as the
average from two biological repeats. The inactivated quadrant indicates the cells expressing H2AX
without phosphorylation and the activated quadrant indicates the ɣH2AX phosphorylated cells.

THP-1 cells [4] = experiment: Combination treatment with antileukemic drugs, THP-1 cell viability; type: cell-based; details: compound 5 μM (ricolinostat 1.25 μM) 72 h, then compound + doxorubicin 62.5 nM 48 h

Row | SMILES | ROS in combination with doxorubicin vs doxorubicin alone (THP-1 cells [1]) | cells in the apoptosis/dead quadrant (caspase 3/7 staining), pre-treatment then doxorubicin (THP-1 cells [2]) | DSB levels, compound on its own or as a pretreatment to doxorubicin (THP-1 cells [3]) | cell viability after pre-treatment with compound and co-treatment with doxorubicin (THP-1 cells [4]) | ROS generation, drug alone (THP-1 cells [1]; doxorubicin 62.5 nM, 24 h) | formation of DSBs (γH2AX activation), drug alone (THP-1 cells [3]; 6 h (methods))
1 | O=C(NO)c1ccc(CN2CCC(CN[C@@H]3C[C@H]3c3ccccc3)CC2)cc1 (relative stereo) [iDual] | no further increase | over 80% | neither | significant decrease |  | 
2 | O=C(O)c1ccc(CN2CCC(CN[C@@H]3C[C@H]3c3ccccc3)CC2)cc1 [GSK2879552, reference compound] | no further increase |  | neither |  |  | 
3 | COc1cccc2c1C(=O)c1c(O)c3c(c(O)c1C2=O)C[C@@](O)(C(=O)CO)C[C@@H]3O[C@H]1C[C@H](N)[C@H](O)[C@H](C)O1 [doxorubicin] |  |  |  |  | ROS generation | up to 40%
4 | O=C(NO)c1ccc(CN2CCC(CNC3(c4ccccc4)CC3)CC2)cc1 [iHDAC6] | no further increase |  | mild increase |  |  | 
5 | O=C(CCCCCCNC(=O)c1cnc(N(c2ccccc2)c2ccccc2)nc1)NO [ricolinostat, reference compound] | no further increase |  | neither | to a much lesser extent |  | 
